These results are taken from patent publication US20250304811A1, “Ink Jet Ink Composition And Recording Method” (SEIKO EPSON CORPORATION, priority 2024, published 2025).

A short description of this data set: Solubility in water. The note with it: 20° C., 100 g of water.

In the case of n-(n-octyl)-2-pyrrolidone, the solubility in water is listed as 0.1 g/100 g of water.

1,4-cyclohexane dimethanol: the solubility in water was 0.8 g/100 g of water.

For the substance N,N-dimethylisopropanolamine, the miscibility with water entry is given as “completely miscible with water”.
